In PubChem BioAssay AID485273 (Sanford-Burnham Center for Chemical Genomics, 2010):
This is a selection; strong and weak results do not stand in their true shares. Active and inactive are the calls of the source. Rule as the data show it: active = inhibition above about 45% (passing the limit was not always enough); inconclusive = no clear call, values can overlap the other calls.

Sequences of proteins named here, by UniProt entry; tags and fusion partners are left off. A change or cut given only in a name is not applied to a line headed by its entry.
UniProt P61088: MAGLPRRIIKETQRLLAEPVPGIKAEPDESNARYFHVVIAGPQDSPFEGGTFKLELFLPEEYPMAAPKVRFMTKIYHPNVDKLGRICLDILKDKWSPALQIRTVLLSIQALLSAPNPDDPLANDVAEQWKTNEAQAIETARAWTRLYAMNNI

Target: Ubiquitin-conjugating enzyme E2 N (Homo sapiens) (UniProt P61088)
Assay: blockers of UBC13 ubiquitin chain synthesis – biochemical, TR-FRET, uHTS, primary screen (AID 485273)
Conditions: UBC13 polyubiquitin chain formation, at 20 µM, hits give high values

Row | Compound | inhibition
1 | CCC(C)N(CC(C)C)C(=S)SC(NC(C)=O)C(Cl)(Cl)Cl (stereo not given) | inactive: 4.5%
2 | O=C(OC1CN2CCC1CC2)c1cccc([N+](=O)[O-])c1 (stereo not given) | inactive: 0.6%
3 | CCOC(=O)c1ccc(NC(=O)C(C)(CCl)SC)cc1 (stereo not given) | inactive: -1.6%
4 | O=C(COc1ccccc1)OC1CN2CCC1CC2 (stereo not given) | inactive: -9.1%
5 | O=C(Nc1ccncc1[N+](=O)[O-])c1ccc([N+](=O)[O-])cc1[N+](=O)[O-] | inactive: -1.2%
6 | COP1(=S)c2c(C)nn(CCC#N)c2N=C(c2ccc(F)cc2)N1C (stereo not given) | inactive: 2.4%
7 | Cc1cc(SC(NC=O)C(Cl)(Cl)Cl)ncn1 (stereo not given) | inactive: 3.7%
8 | O=P(Nc1ccccn1)(c1cccc2ccccc12)c1cccc2ccccc12 | inactive: -4%
9 | CCOC(=O)Nc1cccc([As](=O)(O)O)c1 | inactive: 2.2%
10 | CCCCOc1ccc(C(=O)NCC2(N3CCCCC3)CCCCC2)cc1OC | inactive: 8.1%
11 | Cc1cc(SC(NC(=O)c2ccccc2)C(Cl)(Cl)Cl)nc(C(C)C)n1 (stereo not given) | inactive: 3.8%
12 | CCOC(=O)Nc1ccc([As](=O)(O)O)c(O)c1 | inactive: -4.3%
13 | CC(C)NC(=O)NP(=O)(Oc1ccccc1)Oc1ccccc1 | inactive: 4.1%
14 | O=C(OC1CN2CCC1CC2)c1cccc2[nH]cnc12 (stereo not given) | inactive: -5.6%
15 | CCN(CC)C(=S)SC(NC=O)C(Cl)(Cl)Cl (stereo not given) | inactive: -15.6%
16 | O=[N+]([O-])c1cc([N+](=O)[O-])c(-c2ccn[nH]2)s1 | inactive: -24.9%
17 | ClCCSc1nnc(-c2cccnc2)o1 | inactive: 1.1%
18 | CC(C)c1ccc(OP(=O)(Nc2ccccn2)Oc2ccccc2F)cc1 (stereo not given) | inactive: 5.3%
19 | Cc1ccc(OP(=O)(Nc2ccc([N+](=O)[O-])cn2)Oc2ccc(C)cc2)cc1 | inactive: 1.7%
20 | Cc1ccc2nc3c(c(C)c2c1)CC(C(Cl)Cl)S3 (stereo not given) | inactive: 10.9%
21 | C[As](=O)(O)c1cccc(C(=O)O)c1 | inactive: 5.5%
22 | O=[As](O)(c1ccc(O)cc1)c1ccccc1O | inactive: -4.5%

Row | Compound | inhibition
23 | COc1cc(C(=O)NCC2(N3CCOCC3)CCCCC2)ccc1OCC(C)C | inactive: 5.5%
24 | COc1ccc(N/C(=N/P(=O)(N2CCOCC2)N2CCOCC2)N2CCOCC2)cc1 | inactive: 8.7%
25 | COc1ccc2nc(NP(=O)(c3ccccc3)c3ccccc3)sc2c1 | inactive: 4.8%
26 | COc1cc(I)ccc1[As](=O)(O)O | inactive: 9.2%
27 | Cc1c2c(nc3ccccc13)SC(C(Cl)Cl)C2 (stereo not given) | inactive: 24.6%
28 | O=C(OC1CN2CCC1CC2)C12CC3CC(CC(C3)C1)C2 (stereo not given) | inactive: 1.3%
29 | Cc1cc(=O)[nH]c(N[N+](=O)[O-])n1 | inactive: -17%
30 | COc1cc(C2NCCC3(OCCO3)C2(C)C)cc(OC)c1OC (stereo not given) | inactive: 14.3%
31 | CCOP(=O)(Nc1cccc2ccccc12)OCC | inactive: 2.9%
32 | Cc1ccc(NCCc2c([N+](=O)[O-])cc([N+](=O)[O-])cc2[N+](=O)[O-])cc1 | inactive: -35.4%
33 | CCCOP(=S)(Nc1nc(N)cc(=O)[nH]1)OCCC | inactive: -6.1%
34 | Cc1cccc(OCC(=O)OC2CN3CCC2CC3)c1 (stereo not given) | inactive: 3.2%
35 | O=[As](O)(c1cccc(O)c1)c1cccc(O)c1 | inactive: 11.2%
36 | O=C(OC1CN2CCC1CC2)c1ccc(Cl)cc1 (stereo not given) | inactive: 6.8%
37 | O=[As](O)(O)c1cccnc1 | inactive: -1%
38 | COc1cc(C(=O)NCC2(N3CCOCC3)CCCCC2)cc(Cl)c1OC(C)C | inactive: 4.8%
39 | CS(=O)(=O)c1ccc(Cl)c(NC(=O)COC(=O)C(O)(c2ccccc2)c2ccccc2)c1 | inactive: 11.2%
40 | N#CCCN(C(=O)COC(=O)C(O)(c1ccccc1)c1ccccc1)c1ccc(F)cc1 | inactive: -0.8%
41 | CN(C(=O)Cc1ccccc1)[C@@H]1CC[C@]2(CCCO2)C[C@H]1N1CCCC1 | inactive: 8.4%
42 | CCOP1(=S)c2c(C)nn(CCC#N)c2N=C(c2ccc(F)cc2)N1C (stereo not given) | inactive: 2.9%
43 | O=[N+]([O-])c1ccc2c(c1)nnn2O | inactive: -3%
44 | CN(C)C(=O)c1cc([N+](=O)[O-])cc2c1-c1c(cc([N+](=O)[O-])cc1[N+](=O)[O-])C2=O | inactive: -123%

Row | Compound | inhibition
45 | CN(C(=O)Cc1ccc(Cl)c(Cl)c1)[C@H]1CC[C@@]2(CCCO2)C[C@@H]1N1CCCC1 | inactive: 12.2%
46 | NC(=O)Nc1ccc([As](=O)(O)O)cc1 | inactive: -6.9%
47 | O=C(O)COc1ccc([As](=O)(O)O)cc1[N+](=O)[O-] | inactive: 5.6%
48 | Nc1ccccc1[As](=O)(O)c1ccccc1 | inactive: -9.3%
49 | CCOP1(=S)c2c(C)nn(CCC#N)c2N=C(c2ccccc2F)N1C (stereo not given) | inactive: 0.7%
50 | O=P(Nc1nccs1)(Oc1ccccc1)Oc1ccccc1 | inactive: -12.2%
51 | O=P(Nc1nccs1)(c1ccccc1)c1nc2ccccc2s1 (stereo not given) | inactive: -0.4%
52 | CS(=O)(=O)c1cc([N+](=O)[O-])c2no[n+]([O-])c2c1 | inactive: -42.6%
53 | Nc1cccc([As](=O)(O)c2ccccc2)c1 | inactive: -4.9%
54 | O=[As](O)(c1cccs1)c1cccs1 | inactive: -3.9%
55 | Cc1ccc(OCC(=O)OC2CN3CCC2CC3)cc1 (stereo not given) | inactive: 5.8%
56 | NS(=O)(=O)c1cccc(NC(=O)COC(=O)C(O)(c2ccccc2)c2ccccc2)c1 | inactive: 6.4%
57 | O=P1(Nc2ccc(Br)cn2)COc2ccccc2OC1 | inactive: -9.1%
58 | O=P1(Nc2ncccn2)COc2ccccc2OC1 | inactive: -13%
59 | CN(C)C1(CNC(=O)c2ccc(S(C)(=O)=O)cc2)CCCCC1 | inactive: -4.1%
60 | O=C(/C=C/c1ccccc1)OC1CN2CCC1CC2 (stereo not given) | inactive: 6%
61 | Cc1nn(-c2ccccc2)c2c1P(=O)(N1CCOCC1)N(C)C(c1ccccc1)=N2 (stereo not given) | inactive: 0.8%
62 | Cc1ccc(C(=O)OC2CN3CCC2CC3)cc1 (stereo not given) | inactive: 3.9%
63 | CC1CCC(C(C)C)C(OP(=O)(Nc2ccccn2)c2ccccc2)C1 (stereo not given) | inactive: -2.5%
64 | CN(C(=O)Cc1ccc(Cl)c(Cl)c1)[C@@H]1CCCC[C@H]1N1CCCC1 | inactive: 3.9%
65 | CC(C)/C=N\N=C(\N)N[N+](=O)[O-] | inactive: -10.5%
